## scFv variants of Ab-14 (heavy chain) against a SARS-CoV-2 spike peptide

Target peptide (SARS-CoV-2 spike, HR2 region): PDVDLGDISGINAS

Each scFv is VH, a 15-residue (Gly4Ser)3 linker, VL, as in the parent Ab-14, and differs from it in the CDRs of the heavy chain only.
VH: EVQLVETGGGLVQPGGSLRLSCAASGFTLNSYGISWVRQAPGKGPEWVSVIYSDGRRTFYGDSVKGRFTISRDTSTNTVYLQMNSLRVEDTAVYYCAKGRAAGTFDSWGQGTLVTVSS
VL: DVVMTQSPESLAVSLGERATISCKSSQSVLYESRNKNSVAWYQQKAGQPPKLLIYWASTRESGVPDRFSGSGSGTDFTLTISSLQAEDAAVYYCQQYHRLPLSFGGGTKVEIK

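The parent was found by panning a naive human phage display library on the peptide. Library AAYL49 holds single substitutions and randomly drawn double and triple substitutions in the CDRs. Affinity was read by AlphaSeq, a pooled yeast mating assay with surface-displayed partners. After mating in shaken culture at 30 °C for 16 h, diploids were selected and their barcode pairs sequenced. A regression on co-assayed BCL2-family reference pairs converts the normalised counts of each replicate to an apparent Kd. Mating was done three times.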

Changes read parent residue, position, new residue, counted from the first residue of the VH shown. The read-out is the apparent dissociation constant on a log10 scale (nM): the lower, the stronger. Replicates are averaged; those with no signal do not enter the mean. "nd" means that the variant was in the library but no mating with the target was seen in that replicate; the authors take this as a sign of poor binding, and no number exists. Background: pairings of library AAYL49 with three empty control strains gave a value in 15% of cases (median 4.06, 5th percentile 2.83). Values in that range, when seen in few replicates, are hard to tell from nonspecific mating. Also given: how often the same scFv was detected with the empty control strains, with their mean in brackets. For reference, the parent read 0.65 as the reference entry and 4.11 (one replicate of three) as a member of this library.

{"changes": "I34A/G61R/G99S", "replicates, log10 nM": "3.85 / 3.06 / 2.89", "mean log10 Kd (nM)": "3.27", "signal with controls": "0 of 9"}
{"changes": "V50C/D62S/D106M", "replicates, log10 nM": "nd / nd / 3.54", "mean log10 Kd (nM)": "3.54", "signal with controls": "0 of 9"}
{"changes": "G26H/Y60T/A101Q", "replicates, log10 nM": "2.62 / 2.80 / 2.53", "mean log10 Kd (nM)": "2.65", "signal with controls": "0 of 9"}
{"changes": "N30R/I34V/T104P", "replicates, log10 nM": "nd / 2.72 / nd", "mean log10 Kd (nM)": "2.72", "signal with controls": "1 of 9 (4.39)"}
{"changes": "G33Y/Y52T/S53G", "replicates, log10 nM": "nd / 4.67 / 3.93", "mean log10 Kd (nM)": "4.30", "signal with controls": "3 of 9 (3.86)"}
{"changes": "L29V/Y60P", "replicates, log10 nM": "3.61 / nd / nd", "mean log10 Kd (nM)": "3.61", "signal with controls": "1 of 9 (3.99)"}
{"changes": "I34L/F59N/V64G", "replicates, log10 nM": "nd / 4.03 / nd", "mean log10 Kd (nM)": "4.03", "signal with controls": "3 of 9 (4.11)"}
{"changes": "F27L/D62N", "replicates, log10 nM": "2.08 / 1.96 / 2.03", "mean log10 Kd (nM)": "2.03", "signal with controls": "2 of 9 (4.30)"}
{"changes": "L29H/Y32C/R57E", "replicates, log10 nM": "nd / nd / nd", "mean log10 Kd (nM)": "nd", "signal with controls": "0 of 9"}
{"changes": "Y32M/T58W/K65V", "replicates, log10 nM": "nd / nd / nd", "mean log10 Kd (nM)": "nd", "signal with controls": "0 of 9"}
{"changes": "Y32C/D54C", "replicates, log10 nM": "nd / nd / nd", "mean log10 Kd (nM)": "nd", "signal with controls": "1 of 9 (2.90)"}
{"changes": "R57E/G61S/G99E", "replicates, log10 nM": "nd / nd / nd", "mean log10 Kd (nM)": "nd", "signal with controls": "0 of 9"}
{"changes": "Y32R/S63G/F105Y", "replicates, log10 nM": "4.31 / nd / nd", "mean log10 Kd (nM)": "4.31", "signal with controls": "3 of 9 (4.05)"}
{"changes": "Y32H/I51P", "replicates, log10 nM": "4.40 / 3.39 / 4.86", "mean log10 Kd (nM)": "4.22", "signal with controls": "4 of 9 (4.67)"}
{"changes": "T28A/S35I/R100H", "replicates, log10 nM": "nd / nd / nd", "mean log10 Kd (nM)": "nd", "signal with controls": "0 of 9"}
{"changes": "T58R/G99W/G103C", "replicates, log10 nM": "nd / 2.89 / 2.62", "mean log10 Kd (nM)": "2.75", "signal with controls": "0 of 9"}
{"changes": "F27I/S35V/R100L", "replicates, log10 nM": "nd / nd / nd", "mean log10 Kd (nM)": "nd", "signal with controls": "0 of 9"}
{"changes": "F27W/T28N/F105C", "replicates, log10 nM": "nd / nd / nd", "mean log10 Kd (nM)": "nd", "signal with controls": "0 of 9"}
{"changes": "R56A/G103V/S107Q", "replicates, log10 nM": "nd / nd / nd", "mean log10 Kd (nM)": "nd", "signal with controls": "0 of 9"}
{"changes": "F27T/Y32M/R100Y", "replicates, log10 nM": "nd / 3.27 / nd", "mean log10 Kd (nM)": "3.27", "signal with controls": "2 of 9 (3.90)"}
{"changes": "Y52C/D54L/G55H", "replicates, log10 nM": "nd / nd / 5.58", "mean log10 Kd (nM)": "5.58", "signal with controls": "2 of 9 (3.23)"}

The 2 strongest on average among those seen in every replicate, once more:

{"changes": "F27L/D62N", "replicates, log10 nM": "2.08 / 1.96 / 2.03", "mean log10 Kd (nM)": "2.03", "signal with controls": "2 of 9 (4.30)"}
{"changes": "G26H/Y60T/A101Q", "replicates, log10 nM": "2.62 / 2.80 / 2.53", "mean log10 Kd (nM)": "2.65", "signal with controls": "0 of 9"}

From the AlphaSeq antibody data of Engelhart et al. 2022 (doi:10.1038/s41597-022-01779-4), copy in the FLAb collection.